{"sequences": {"note": "Sequences of proteins named here, by UniProt entry; tags and fusion partners are left off. Residues count along the entry.", "UniProt Q8IY17, 775-1264": "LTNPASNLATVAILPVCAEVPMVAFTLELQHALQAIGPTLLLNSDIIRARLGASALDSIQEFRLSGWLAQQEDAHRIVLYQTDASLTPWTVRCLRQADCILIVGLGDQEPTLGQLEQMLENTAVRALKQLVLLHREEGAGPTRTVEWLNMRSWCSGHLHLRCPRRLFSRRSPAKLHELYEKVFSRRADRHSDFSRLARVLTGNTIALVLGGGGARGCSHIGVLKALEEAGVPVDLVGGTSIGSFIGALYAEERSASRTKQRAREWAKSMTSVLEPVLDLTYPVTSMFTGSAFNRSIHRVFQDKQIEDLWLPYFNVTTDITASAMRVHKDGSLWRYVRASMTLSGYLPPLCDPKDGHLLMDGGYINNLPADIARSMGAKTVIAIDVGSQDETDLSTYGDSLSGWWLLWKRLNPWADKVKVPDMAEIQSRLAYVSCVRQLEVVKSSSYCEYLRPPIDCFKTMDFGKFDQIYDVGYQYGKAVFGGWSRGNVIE"}, "source": "patent US8623196B2", "about": "(priority 2007, dated 2014)", "molecular_target": "NEST (recombinant esterase domain of NTE) (Homo sapiens, UniProt Q8IY17)", "conditions": "inhibitor added to phosphate buffer after steady phenyl valerate signal", "note": "Some compounds may have been tested in ways that are not shown here."}
{"compound": "CC(C)NP(=O)(F)NC(C)C", "values": [{"measurement": "drop in current after addition of NEST inhibitor (dose dependence)", "value": "dose-dependent response"}]}
